{"source": "patent US20130012466A1", "about": "(priority 2006, published 2013)", "tested_on": "Du145", "assay": "Cytotoxicity assay (cell titer-glo and calcein AM), Du145", "conditions": "read-out: Cytotoxicity IC50, Du145, CTG, CTG (cell titer-glo) readout, % error in parentheses"}
{"smiles": "COc1cc2c(c(OC)c1OC)-c1ccc(OC)c(=O)cc1[C@@H](NC(=O)CN(OC)[C@@H]1O[C@H](CO)[C@@H](O)[C@H](O)[C@H]1F)CC2", "note": "[Col34, 2-fluoro-2-deoxy-D-glucoside]", "values": [{"measurement": "IC50", "result": 142, "unit": "nM"}]}
